Measurements taken from patent US20260028338A1, “HETEROBIFUNCTIONAL COMPOUNDS AND METHODS OF TREATING DISEASE” (Halda Therapeutics OpCo, Inc., priority 2023, published 2026).

Columns and labels:
[1] = target: biotinylated BCL6 (5-129) (Homo sapiens, UniProt P41182); experiment: SPR assay for binding affinity to BCL6; details: Biacore 8K, 25° C., immobilized biotinylated BCL6 (5-129)
Experimental: Exemplary compounds were tested for ability to bind to B-cell lymphoma 6 (BCL6) protein.
Binding studies by surface plasmon resonance (SPR) were performed using a Biacore 8K (Cytiva) instrument at 25° C. Briefly, biotinylated BCL6 (5-129) was diluted in 10 mM HEPES pH 7.4, 150 mM NaCl, 0.05% Surfactant P20, 0.5 mM TCEP, 3% DMSO to 1-5 μg/mL and was immobilized on an SA sensor chip (Cytiva, BR100032), resulting in surface densities at 1000-3000 resonance units (RUs). Test compounds were serially diluted five times in the same buffer and were injected to the immobilized surface. Kinetic determination experiments were performed using single-cycle kinetics with 110-120 s contact time, 1000-4000 s dissociation time, 30 μL/min flow rate. Binding data were analyzed by using Biacore insight evaluation software to determine KD values for test compounds.

[2] = target: His-tagged BRD4 BD1 (46-168) (Homo sapiens, UniProt O60885); experiment: AlphaLISA competition assay, BRD4 BD1; details: BRD4-BD1, AlphaLISA competition with biotinylated histone H4K5/8/12/16(Ac) peptide, 10 nM
Experimental: (§1) Exemplary compounds were tested for ability to bind to bromodomain-containing protein 4 (BRD4).
(§2) Compounds were tested using a developed AlphaLISA competition assay. Briefly, His-tagged BRD4 BD1 (46-168) and biotinylated histone H4K5/8/12/16(Ac) peptide (ANASPEC, AS-64989-1) were incubated in 20 mM HEPES pH 7.5, 100 mM NaCl, 0.5 mM TCEP, 0.1% BSA, 0.02% CHAPS at a final concentration of 10 nM. Test compounds were serially diluted ten times in the same buffer and were added to the BRD4-peptide mixture for 1 h incubation at room temperature. Following incubation, Streptavidin AlphaLISA acceptor beads (PerkinElmer, AL125M) were added to BRD4-peptide-compound samples to a final concentration of 0.01 mg/mL for a 0.5 h incubation at room temperature in the dark. Following incubation, the same amount of Nickel Chelate Alpha donor beads (PerkinElmer, AS101M) were added to the samples for a final 1 h incubation. The AlphaLISA signals were measured using an EnVision plate reader (PerkinElmer). The data were uploaded to Screening Ultra (Dotmatics) to determine the half-maximal inhibitory concentration (IC50) for each test compound.

[3] = target: His-tagged BRD4 BD2 (333-460) (Homo sapiens, UniProt O60885); experiment: AlphaLISA competition assay, BRD4 BD2; details: BRD4-BD2, AlphaLISA competition with biotinylated histone H4K5/8/12/16(Ac) peptide, 20 nM
Experimental: as §1, §2
The same assay was developed for His-tagged BRD4 BD2 (333-460) and biotinylated histone H4K5/8/12/16(Ac) peptide at a final concentration of 20 nM.

[4] = tested on: T-Rex 293 cell line SC cells having increased expression of BCL6 protein; experiment: Cellular growth inhibition assay, T-Rex 293 SC cells with doxycycline (CellTiter-Glo); details: T-Rex 293 SC cells with 10 ng/mL doxycycline (increased BCL6 expression), 72 hours, CellTiter-Glo 2.0
Experimental: (§3) Exemplary compounds were tested for ability to inhibit the proliferation of the following types of cells: (i) a T-Rex 293 cell line having increased expression of BCL6 protein due to exposure of doxycycline and (ii) a T-Rex 293 cell line lacking increased expression of BCL6 protein.
(§4) The following types of cells were prepared for this experiment: (i) a T-Rex 293 cell line having increased expression of BCL6 protein due to exposure to doxycycline and (ii) a T-Rex 293 cell line lacking increased expression of BCL6 protein. Ability of the test compounds to inhibit proliferation of the foregoing cell types was evaluated according to the procedures set forth below.
(§5) The doxycycline-inducible BCL6 protein expressing cell line was established using the following protocol: T-Rex 293 cells were purchased from Invitrogen (Cat #R71007) and transfected using Lipofectamine 2000 with the wild-type BCL6 protein sequence cloned into the pcDNA4/TO vector. […] Clones were analyzed for expression of BCL6 protein in the presence and absence of 10 ng/mL doxycycline (Sigma Cat #D9891), and a single doxycycline-inducible clone (hereinafter “SC”) was selected for use in downstream assays. […]
(§6) At the end of the treatment duration, cell viability was quantified with CellTiter-Glo 2.0 reagent (Promega Cat #G9243). […]
(§7) Data was normalized using zero luminescence for baseline. […]

[5] = tested on: T-Rex 293 cell line SC cells lacking increased expression of BCL6 protein; experiment: Cellular growth inhibition assay, T-Rex 293 SC cells without doxycycline (CellTiter-Glo); details: T-Rex 293 SC cells not exposed to doxycycline (no increased BCL6 expression), 72 hours, CellTiter-Glo 2.0
Experimental: as §3, §4, §5, §6, §7

[6] = tested on: Farage cell line; experiment: Cellular growth inhibition assay, Farage cells (CellTiter-Glo); details: Farage cell line (DLBCL), 72 hours, CellTiter-Glo 2.0
Experimental: Exemplary compounds were tested for ability to inhibit the proliferation of Su-DHL-4 and Farage cells. Su-DHL-4 and Farage cells are commercially available diffuse large B cell lymphoma cell lines (DLBCL).
Su-DHL-4 and Farage cells were purchased from American Type Cell Culture (ATCC Cat #CRL-2957/CRL-2630) and then seeded on poly-D-lysine coated, black clear-bottom 384-well plates at 3000/well in 25 μL Roswell Park Memorial Institute media (RPMI-1640) supplemented with 10% w/w Fetal bovine serum (FBS) and 1% w/w Pen-Strep. Pen-Strep is a commercially available mixture of penicillin G and streptomycin, which is used in mammalian cell culture media to prevent bacterial contamination. Roswell Park Memorial Institute media (RPMI-1640) supplemented with 10% w/w fetal bovine serum (FBS), and 1% w/w Pen-Strep is herein referred to as Treatment Medium. […]
At the end of the treatment duration, cell viability was quantified with CellTiter-Glo 2.0 reagent (Promega Cat #G9243). […] Following incubation, the plates were spun at 3000×g for 30 seconds, then sealed with an optical adhesive cover, and luminescence readings were measured with an EnVision Plate Reader (Perkin Elmer).
as §7

| Compound | pKd [1] | pIC50 [2] | pIC50 [3] | GI50 [4] [nM] | GI50 [5] [nM] | GI50 [6] [nM] |
| --- | --- | --- | --- | --- | --- | --- |
| CNC(=O)COc1cc2cc(Nc3nc(N4CCC(CN5CCCC6(C5)CN(C[C@H]5C[C@H](Oc7ccc(C(C)(C)O)cc7-c7cn(C)c(=O)c8[nH]ccc78)C5)C6)CC4)ncc3Cl)ccc2n(C)c1=O | 8.00 to 9.00 | > 8.30 | > 8.30 | < 500 | < 500 | < 500 |
| CNC(=O)COc1cc2cc(Nc3nc(N4CCC(CN5CCN(CC[C@H]6C[C@H](Oc7ccc(C(C)(C)O)cc7-c7cn(C)c(=O)c8[nH]ccc78)C6)CC5)CC4)ncc3Cl)ccc2n(C)c1=O | 8.00 to 9.00 | > 8.30 | > 8.30 | < 500 | < 500 | < 500 |

pIC50, pKd: −log10 of the molar value.
